Assay results: patent US8497240B2 (priority 2006, dated 2013)

Legend:
[1] = format: in vivo, NIH/Swiss mice
[2] = format: in vivo, NIH/Swiss mice; details: AUC240
human GIP receptor = target: T1, human GIP receptor (Homo sapiens, UniProt P48546); test: biochemical; format: binding
T1 construct: expressed in transfected cells; host or cells: HEK293 (HEK-GIPR), membranes
T1 sequence (P48546 22-466): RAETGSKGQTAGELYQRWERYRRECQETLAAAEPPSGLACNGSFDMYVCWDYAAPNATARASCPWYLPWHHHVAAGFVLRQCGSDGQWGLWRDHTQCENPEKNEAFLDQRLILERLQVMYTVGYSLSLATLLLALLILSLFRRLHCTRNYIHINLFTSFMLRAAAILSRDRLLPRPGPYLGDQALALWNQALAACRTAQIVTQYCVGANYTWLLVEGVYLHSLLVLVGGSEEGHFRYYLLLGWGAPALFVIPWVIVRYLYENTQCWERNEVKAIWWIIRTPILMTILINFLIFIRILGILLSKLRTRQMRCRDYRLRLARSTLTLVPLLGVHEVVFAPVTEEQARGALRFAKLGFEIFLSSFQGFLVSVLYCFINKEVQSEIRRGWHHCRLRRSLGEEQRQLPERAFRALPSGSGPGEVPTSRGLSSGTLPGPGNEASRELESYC

CC[C@H](C)[C@H](NC(=O)[C@H](CO)NC(=O)[C@H](Cc1ccc(O)cc1)NC(=O)[C@H](CC(=O)O)NC(=O)[C@H](CO)NC(=O)[C@@H](NC(=O)[C@H](Cc1ccccc1)NC(=O)[C@@H](NC(=O)CNC(=O)[C@H](CCC(=O)O)NC(=O)[C@@H](C)NC(=O)[C@@H](N)Cc1ccc(O)cc1)[C@@H](C)O)[C@@H](C)CC)C(=O)N[C@@H](C)C(=O)N[C@@H](CC(C)C)C(=O)N[C@@H](CC(=O)O)C(=O)N[C@@H](CCCCN)C(=O)N[C@H](C(=O)N[C@@H](CCCNC(=N)N)C(=O)N[C@@H](CCC(N)=O)C(=O)N[C@@H](CCC(N)=O)C(=O)N[C@@H](CCC(=O)O)C(=O)N[C@@H](Cc1ccccc1)C(=O)N[C@H](C(=O)N[C@@H](CC(N)=O)C(=O)N[C@@H](Cc1c[nH]c2ccccc12)C(=O)N[C@@H](CC(C)C)C(=O)N[C@@H](CC(C)C)C(=O)N[C@@H](C)C(=O)N[C@@H](CCC(N)=O)C(=O)N[C@@H](CCCCN)C(=O)NCCC(=O)N1CCC[C@H]1C(=O)N[C@@H](CO)C(=O)N[C@@H](CO)C(=O)NCC(=O)N[C@@H](C)C(=O)N1CCC[C@H]1C(=O)N1CCC[C@H]1C(=O)N1CCC[C@H]1C(=O)N[C@@H](CO)C(N)=O)C(C)C)[C@@H](C)CC [Compound 0601GIP4290]
OGTT/GL (%) ([1]; 350 nmol/kg): −17%

CC[C@H](C)[C@H](NC(=O)[C@H](CO)NC(=O)[C@H](Cc1ccc(O)cc1)NC(=O)[C@H](CC(=O)O)NC(=O)[C@H](CO)NC(=O)[C@@H](NC(=O)[C@H](Cc1ccccc1)NC(=O)[C@@H](NC(=O)CNC(=O)[C@H](CCC(=O)O)NC(=O)[C@@H](C)NC(=O)[C@H](Cc1ccc(O)cc1)NC(=O)[C@@H](N)CC(C)C)[C@@H](C)O)[C@@H](C)CC)C(=O)N[C@@H](C)C(=O)N[C@@H](CCSC)C(=O)N[C@@H](CC(=O)O)C(=O)N[C@@H](CCCCN)C(=O)N[C@H](C(=O)N[C@@H](Cc1c[nH]cn1)C(=O)N[C@@H](CCC(N)=O)C(=O)N[C@@H](CCC(N)=O)C(=O)N[C@@H](CC(=O)O)C(=O)N[C@@H](Cc1ccccc1)C(=O)N[C@H](C(=O)N[C@@H](CC(N)=O)C(=O)N[C@@H](Cc1c[nH]c2ccccc12)C(=O)N[C@@H](CC(C)C)C(=O)N[C@@H](CC(C)C)C(=O)N[C@@H](C)C(=O)N[C@@H](CCC(N)=O)C(=O)N[C@@H](CCCCN)C(=O)N1CCC[C@H]1C(=O)N[C@@H](CCCCN)C(=O)N[C@@H](CCCCN)C(=O)N[C@H](C(=O)N[C@@H](CCCNC(=N)N)C(=O)N[C@@H](Cc1ccc(O)cc1)C(=O)N[C@@H](CO)C(N)=O)[C@@H](C)CC)C(C)C)[C@@H](C)CC [0601GIP4798]
Basal Gluc. Low. 80 nmol/Kg [2]: −8%,
OGTT/GL (%) ([1]; 30 nmol/kg): −27, % and −27, 30%

CC[C@H](C)[C@H](N)C(=O)N[C@@H](Cc1ccc(O)cc1)C(=O)N[C@H](C)C(=O)N[C@@H](CCC(=O)O)C(=O)NCC(=O)N[C@H](C(=O)N[C@@H](Cc1ccccc1)C(=O)N[C@H](C(=O)N[C@@H](CO)C(=O)N[C@@H](CC(=O)O)C(=O)N[C@@H](Cc1ccc(O)cc1)C(=O)N[C@@H](CO)C(=O)N[C@H](C(=O)N[C@@H](C)C(=O)N[C@@H](CCSC)C(=O)N[C@@H](CC(=O)O)C(=O)N[C@@H](CCCCN)C(=O)N[C@H](C(=O)N[C@@H](Cc1c[nH]cn1)C(=O)N[C@@H](CCC(N)=O)C(=O)N[C@@H](CCC(N)=O)C(=O)N[C@@H](CC(=O)O)C(=O)N[C@@H](Cc1ccccc1)C(=O)N[C@H](C(=O)N[C@@H](CC(N)=O)C(=O)N[C@@H](Cc1c[nH]c2ccccc12)C(=O)N[C@@H](CC(C)C)C(=O)N[C@@H](CC(C)C)C(=O)N[C@@H](C)C(=O)N[C@@H](CCC(N)=O)C(=O)N[C@@H](CCCCN)C(=O)N1CCC[C@H]1C(=O)N[C@@H](CCCCN)C(=O)N[C@@H](CCCCN)C(=O)N[C@H](C(=O)N[C@@H](CCCNC(=N)N)C(=O)N[C@@H](Cc1ccc(O)cc1)C(=O)N[C@@H](CO)C(N)=O)[C@@H](C)CC)C(C)C)[C@@H](C)CC)[C@@H](C)CC)[C@@H](C)CC)[C@@H](C)O [0601GIP4801]
inhibition at 0.01 µM (human GIP receptor; read-out: (% Inh 10 nm, GIP-LF Assay)): 88.8%
inhibition at 0.01 µM (human GIP receptor; read-out: GIP RBA (% Inh 10 nM)): 88.8%
Basal Gluc. Low. 80 nmol/Kg [2]: −1%,
OGTT/GL (%) ([1]; 30 nmol/kg): −23, % and −23, 30%

CC[C@H](C)[C@H](NC(=O)[C@H](CO)NC(=O)[C@H](Cc1ccc(O)cc1)NC(=O)[C@H](CC(=O)O)NC(=O)[C@H](CO)NC(=O)[C@@H](NC(=O)[C@H](Cc1ccccc1)NC(=O)[C@@H](NC(=O)CNC(=O)[C@H](CCC(=O)O)NC(=O)[C@@H](C)NC(=O)[C@@H](N)Cc1ccc(O)cc1)[C@@H](C)O)[C@@H](C)CC)C(=O)N[C@@H](C)C(=O)N[C@@H](CC(C)C)C(=O)N[C@@H](CC(=O)O)C(=O)N[C@@H](CCCCN)C(=O)N[C@H](C(=O)N[C@@H](CCCNC(=N)N)C(=O)N[C@@H](CCC(N)=O)C(=O)N[C@@H](CCC(N)=O)C(=O)N[C@@H](CCC(=O)O)C(=O)N[C@@H](Cc1ccccc1)C(=O)N[C@H](C(=O)N[C@@H](CC(N)=O)C(=O)N[C@@H](Cc1c[nH]c2ccccc12)C(=O)N[C@@H](CC(C)C)C(=O)N[C@@H](CC(C)C)C(=O)N[C@@H](C)C(=O)N[C@@H](CCC(N)=O)C(=O)N[C@@H](CCCNC(=N)N)C(=O)N1CCC[C@H]1C(=O)N[C@@H](CO)C(=O)N[C@@H](CO)C(=O)NCC(=O)N[C@@H](C)C(=O)N1CCC[C@H]1C(=O)N1CCC[C@H]1C(=O)N1CCC[C@H]1C(=O)N[C@@H](CO)C(N)=O)C(C)C)[C@@H](C)CC [Compound 0601GIP4278]
OGTT/GL (%) ([1]; 350 nmol/kg): −12%

CC[C@H](C)[C@H](NC(=O)[C@H](CCCCN)NC(=O)[C@H](CC(=O)O)NC(=O)[C@H](CC(C)C)NC(=O)[C@H](C)NC(=O)[C@@H](NC(=O)[C@H](CO)NC(=O)[C@H](Cc1ccc(O)cc1)NC(=O)[C@H](CC(=O)O)NC(=O)[C@H](CO)NC(=O)[C@@H](NC(=O)[C@H](Cc1ccccc1)NC(=O)[C@@H](NC(=O)CNC(=O)[C@H](CCC(=O)O)NC(=O)[C@@H](C)NC(=O)[C@@H](N)Cc1ccc(O)cc1)[C@@H](C)O)[C@@H](C)CC)[C@@H](C)CC)C(=O)N[C@@H](C)C(=O)N[C@@H](CCC(N)=O)C(=O)N[C@@H](CCC(N)=O)C(=O)N[C@@H](CCC(=O)O)C(=O)N[C@@H](Cc1ccccc1)C(=O)N[C@H](C(=O)N[C@@H](CC(N)=O)C(=O)N[C@@H](Cc1c[nH]c2ccccc12)C(=O)N[C@@H](CC(C)C)C(=O)N[C@@H](CC(C)C)C(=O)N[C@@H](C)C(=O)N[C@@H](CCC(N)=O)C(=O)N[C@@H](CCCNC(=N)N)C(=O)N1CCC[C@H]1C(=O)N[C@@H](CO)C(=O)N[C@@H](CO)C(=O)NCC(=O)N[C@@H](C)C(=O)N1CCC[C@H]1C(=O)N1CCC[C@H]1C(=O)N1CCC[C@H]1C(=O)N[C@@H](CO)C(N)=O)C(C)C [Compound 0601GIP4263]
OGTT/GL (%) ([1]; 350 nmol/kg): −17%

Where “and” joins values, the source holds several entries; their conditions need not be identical. Equal entries are not always repeated. Where two headings read alike, the source gives them in different places.
